According to PubChem BioAssay AID504326 (The Scripps Research Institute Molecular Screening Center, 2011):
The list shows a part of the results, in another mix than the full data. Some salts and complexes are drawn in separate pieces, as the source files them; their charges need not balance. Calls of active or inactive are those of the source. No stated cut-off is given here; in the data, active means activation above about 18%; inactive means the rest.

The chains behind the UniProt entries cited, without tags or fusion partners.
UniProt P35372, whole entry, looked up: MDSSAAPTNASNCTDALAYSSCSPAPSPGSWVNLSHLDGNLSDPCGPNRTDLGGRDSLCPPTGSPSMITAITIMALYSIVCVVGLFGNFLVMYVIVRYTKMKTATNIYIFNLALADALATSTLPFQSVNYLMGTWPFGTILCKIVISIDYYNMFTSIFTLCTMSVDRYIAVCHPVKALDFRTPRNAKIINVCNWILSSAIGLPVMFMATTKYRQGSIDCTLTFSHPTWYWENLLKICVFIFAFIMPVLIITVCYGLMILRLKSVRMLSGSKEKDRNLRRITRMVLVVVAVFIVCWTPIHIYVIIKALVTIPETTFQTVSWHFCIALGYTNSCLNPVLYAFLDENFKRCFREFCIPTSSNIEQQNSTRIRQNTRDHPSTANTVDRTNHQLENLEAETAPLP
UniProt P41143, whole entry, looked up: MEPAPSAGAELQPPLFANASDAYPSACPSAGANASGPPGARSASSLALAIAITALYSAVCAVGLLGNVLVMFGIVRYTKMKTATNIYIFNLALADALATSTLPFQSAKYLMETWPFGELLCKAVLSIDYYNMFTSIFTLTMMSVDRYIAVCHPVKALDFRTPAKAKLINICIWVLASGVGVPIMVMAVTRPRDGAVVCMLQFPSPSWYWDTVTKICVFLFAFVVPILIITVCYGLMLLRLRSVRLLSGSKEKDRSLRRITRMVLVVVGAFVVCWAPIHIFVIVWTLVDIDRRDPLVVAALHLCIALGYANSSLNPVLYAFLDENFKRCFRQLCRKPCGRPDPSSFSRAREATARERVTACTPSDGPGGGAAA

target: Mu-type opioid receptor (Homo sapiens) + Delta-type opioid receptor (Homo sapiens) (UniProt P35372+P41143); assay: inducers of mu-delta opioid receptor heterodimers – cell-based, luminescence, primary screen (AID 504326); conditions: cells, OPRM1-OPRD1 heterodimerization, at 9.3 µM, hits give high values;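 further: 0% = vehicle-treated cells and 100% = reference agonist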

Compound	activation
CCCCN1CCC(C#N)(Nc2ccccc2)CC1	inactive: -2.23%
COc1ccccc1OP(C)(=O)Nc1ccccc1Br (configuration not stated)	inactive: -0.4%
CC(C)(C)c1ccc(OP(C)(=O)O)cc1	inactive: -0.15%
CP(=O)(Nc1ccc(Cl)cc1)Oc1ccc(F)cc1 (configuration not stated)	inactive: -1.28%
COc1ccc(OP(C)(=O)Nc2ccccn2)cc1 (configuration not stated)	inactive: -0.53%
CN(C)CCOC(=O)C(O)(c1ccccc1)C1CCCC1 (configuration not stated)	inactive: -2.61%
COc1ccccc1OP(C)(=O)Nc1ccc(Br)cc1 (configuration not stated)	inactive: -2.58%
COc1ccccc1OP(C)(=O)Nc1ccc(C)cc1C (configuration not stated)	inactive: -2.77%
CP(=O)(Nc1ccccn1)Oc1ccccc1 (configuration not stated)	inactive: -0.8%
CCc1ccc(OP(C)(=O)O)cc1	inactive: -0.69%
Cc1c(NP(C)(=O)Oc2ccc(C(C)C)cc2)c(=O)n(-c2ccccc2)n1C (configuration not stated)	inactive: -1.65%
O=[N+]([O-])c1cc([N+](=O)[O-])c(Nc2ccccn2)c([N+](=O)[O-])c1	inactive: 2.55%
COc1ccccc1OP(C)(=O)Nc1ccc(C)c(C)c1 (configuration not stated)	inactive: -1.51%
COc1ccc(OP(C)(=O)Nc2ccccc2Br)cc1 (configuration not stated)	inactive: -1.07%
Cc1cc(C)cc(OP(C)(=O)Nc2cccc(C(F)(F)F)c2)c1 (configuration not stated)	inactive: -0.43%
O=C1C(O)=C([N+](=O)[O-])C(=O)C(O)=C1[N+](=O)[O-]	inactive: -3.05%
CP(=O)(Nc1ccc(Cl)cc1Cl)Oc1ccccc1 (configuration not stated)	inactive: -0.57%
CCCCCCCCCCCCCCCC1C[N+](C)(C)CCOP(C)(=O)O1 (configuration not stated)	inactive: -2.42%
CP(=O)(OCCOc1ccccc1)OCCOc1ccccc1	inactive: -4.72%
CCOC(=O)c1ccc(NP(C)(=O)Oc2ccc(F)cc2)cc1 (configuration not stated)	inactive: -0.04%
COc1ccc(OP(C)(=O)Nc2ccc(SC(F)(F)F)cc2)cc1 (configuration not stated)	inactive: 3.43%

Compound	activation
CP(=O)(Nc1ccccc1)Oc1ccc(F)cc1 (configuration not stated)	inactive: -0.57%
O=[N+]([O-])c1cc([N+](=O)[O-])c(OC2CCCCC2O)c([N+](=O)[O-])c1 (configuration not stated)	inactive: -0.76%
CCCCCOc1ccc(NP(C)(=O)Oc2ccc(Cl)cc2Cl)cc1 (configuration not stated)	inactive: 2.66%
Cc1c([N+](=O)[O-])cc([N+](=O)[O-])c(Br)c1[N+](=O)[O-]	inactive: -2.42%
CCN(CC)CCCOC(=O)C(O)(c1ccccc1)C1CCCCC1 (configuration not stated)	inactive: -1.37%
CP(=O)(Nc1ccccc1F)Oc1ccccc1 (configuration not stated)	inactive: 0.76%
CC(C)c1ccc(OP(C)(=O)Nc2ccc(SC(F)(F)F)cc2)cc1 (configuration not stated)	inactive: 4.81%
COc1ccc2c(c1O)-c1c(O)c(OC)cc3c1[C@H](C2)[N+](C)(C)CC3.O=[N+]([O-])c1cc([N+](=O)[O-])c([O-])c([N+](=O)[O-])c1[O-]	inactive: -0.7%
O=C(OC1CN2CCC1CC2)c1ccc([N+](=O)[O-])cc1 (configuration not stated)	inactive: 3.98%
O=C(OCCN1CCN(CCOCc2ccccc2)CC1)C(O)(c1ccccc1)c1ccccc1	inactive: -0.95%
CCOP(C)(=S)SCC(=O)NC(C)(CC)C(=O)O (configuration not stated)	inactive: -0.82%
CP(=O)(Nc1ccc(SC(F)(F)F)cc1)Oc1ccc(F)cc1 (configuration not stated)	inactive: 5.35%
Cc1ccccc1NP(C)(=O)Nc1ccccc1C	inactive: -0.82%
CP(=O)(Nc1ccc2c(c1)OCCO2)Oc1ccccc1 (configuration not stated)	inactive: -0.54%
CN(C)CCOC(=O)C(O)(c1ccccc1)C1CCCCC1 (configuration not stated)	inactive: -1.02%
COc1ccc(NP(C)(=O)Oc2ccccc2OC)cc1 (configuration not stated)	inactive: -0.54%
COc1ccc(OP(C)(=O)Nc2cccc(Br)c2)cc1 (configuration not stated)	inactive: -3.93%
Cc1c(C(c2ccc3c(c2)OCO3)c2c(C)n(C)n(-c3ccccc3)c2=O)c(=O)n(-c2ccccc2)n1C.O=[N+]([O-])c1cc([N+](=O)[O-])c(O)c([N+](=O)[O-])c1	inactive: -1.35%
O=[N+]([O-])c1ccc(OP2(=O)COCCO2)cc1 (configuration not stated)	inactive: -1.53%
Cc1cc(-c2cccc3ccccc23)c(C)cn1.O=[N+]([O-])c1cc([N+](=O)[O-])c(O)c([N+](=O)[O-])c1	inactive: -3.99%
O=[N+]([O-])c1cc([N+](=O)[O-])c(NCC2CCS(=O)(=O)C2)c([N+](=O)[O-])c1 (configuration not stated)	inactive: 4.15%
